# Reference: patent US4389343A, “Immunopotentiating peptides from thymus” (Hoffmann-La Roche Inc., priority 1981, dated 1983)
# Test system: Candida albicans ATCC 10231
# Test: protective activity against opportunistic infections in immunosuppressed mice
# Assay type: in vivo
# Conditions: female ddY mice infected with Candida albicans 24 hours after last treatment
# Protocol: The compounds of formula I were tested for protective activity against opportunistic infections in immunosuppressed mice. Female ddY mice (6 weeks old) weighing about 25 g were pretreated daily for eight days with 5-fluorouracil (5-FU) (25 mg/kg/day, i.p.) and with thymosin α1or with compounds of formula I (i.p.) at varying dosages. The mice were then infected with Candida albicans ATCC 10231 (1×10^5 cells or more) at 24 hours after the last treatment. One control group was administered 5-FU and saline solution and a second control group received neither 5-FU nor a thymic polypeptide prior to infection with Candida albicans. The number of animals surviving eight days after infection with Candida albicans and 15 days after infection with Candida albicans is presented in Table IV.
# [1] = 0.4 μg/kg/day i.p. daily for eight days with 5-FU 25 mg/kg/day i.p.
# [2] = 4 μg/kg/day i.p. daily for eight days with 5-FU 25 mg/kg/day i.p.
# [3] = 40 μg/kg/day i.p. daily for eight days with 5-FU 25 mg/kg/day i.p.
# [4] = 0.04 μg/kg/day i.p. daily for eight days with 5-FU 25 mg/kg/day i.p.
Substance,Survivors at Day 8 [1],Survivors at Day 15 [1],Survivors at Day 8 [2],Survivors at Day 15 [2],Survivors at Day 8 [3],Survivors at Day 15 [3],Survivors at Day 8 [4],Survivors at Day 15 [4]
"Thymosin β8: polypeptide isolated from calf thymus Fraction 5, 4,518 daltons, 39 amino acid residues, NH2-terminus acetyl alanine (ADKPDLGEINSFDKAKLKKTETQEKNTLPTKETIEQEKQ; thymosin beta-8 N-terminal acetyl; UniProt P21752 2-40, looked up, fragment)",9/9,9/9,8/9,8/9,7/9,7/9,–,–
"Thymosin β9: polypeptide from fresh frozen calf thymus, identical to thymosin β8 plus --Ala--LysOH at the COOH-terminus, 4,717 daltons, 41 amino acids (ADKPDLGEINSFDKAKLKKTETQEKNTLPTKETIEQEKQAK; not fully specified; Thymosin beta-9; UniProt P21752 2-42, looked up)",7/10,6/10,3/10,3/10,4/10,4/10,4/10,4/10
